# Screening results as filed in PubChem BioAssay.
# Sampled rows, rich in hits. Any-hit rate of the full collection: about 1.5%.
# PABP FP inh: PABP-poly(A) binding inhibition. P11940. PABP-poly(A) RNA binding, fluorescence polarization. calls only at 35 µM. 290,000 compounds, 1% hits. AID 2014;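 also: calls also rest on retests at 20 µM and on dose response follow-up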
# Pemphigus Ab inh: blocks pemphigus antibody binding to human desmoglein-3; binding (percent of control), % at 10 µM; AID 588358; DSG3-coupled beads, scFv-anti-DSG3-GFP binding, flow cytometry; active compounds read low; 310,000 compounds, 0.48% hits;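 active = binding more than 3 SD below its plate's average and above zero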;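 also: hits lower antibody fragment binding to DSG3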
# UUG fidelity: alters start codon recognition fidelity in yeast; AID 602363; activity score, % at 18.7 µM; 350,000 tested, 0.13% active; S. cerevisiae UUG-firefly luciferase reporter, luminescence/redox ratio;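 active means replicate mean at a twofold rise or more, about +100% in these data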;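 further: firefly luciferase made from a UUG start codon reports start codon fidelity; reporter light over untreated wells divided by growth signal over untreated wells; some hits fall short of that in this replicate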
# eIF4H inh: inhibitors of RNA binding by human eIF4H. 290,000 compounds, 0.94% hits. inhibition, % at 35 µM. AID 2012. eIF4H fluorescence polarization binding assay;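 also: calls also rest on retests at 20 µM and on dose response follow-up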
# PABP1 MLLE inh: inhibitors of microRNA-mediated deadenylation, human PABP1 MLLE binding; P11940; GST-MLLE / FITC-PAM2 fluorescence polarization; inhibition, % at 20 µM; 360,000 compounds, 0.36% hits; in the data active = inhibition above about 35%, passing the limit was not always enough
# A number is an active result; – = inactive; · = no result given; + = active, no number. Unless noted, no rule for the calls is given here.
SMILES,PABP FP inh,Pemphigus Ab inh,UUG fidelity,eIF4H inh,PABP1 MLLE inh
CCC(C)Cn1c(C(C)O)nc2ccccc21 (configuration not stated),–,·,–,active,–
CN1CCN(C(=O)C[C@@H]2CC[C@@H]3[C@H](COC[C@@H](O)CN3C(=O)C3CCCC3)O2)CC1,·,·,–,·,·
Cc1[nH]n(-c2ccccc2)c(=O)c1C=Nc1ccc2[nH]c(=O)[nH]c2c1,–,–,–,–,–
Cc1cccc(-n2[nH]c(C)c(C=Nc3ccc4[nH]c(=O)[nH]c4c3)c2=O)c1,+,–,–,61,–
Cc1cc(C(=O)NCC(=O)OCC(=O)NCC2CCCO2)ccc1[N+](=O)[O-] (configuration not stated),·,50,–,·,–
O=C(COC(=O)c1cccc([N+](=O)[O-])c1)NCC1CCCO1 (configuration not stated),+,–,·,active,–
O=C(O)CN1C(=O)/C(=C\c2cc(Br)ccc2OCc2ccccc2Cl)SC1=S,+,–,–,60,–
O=C(O)CN1C(=O)/C(=C\c2cc(Br)ccc2OCc2ccccc2F)SC1=S,–,–,–,–,–
O=C(O)CN1C(=O)/C(=C\c2cc(Br)ccc2OCc2ccc([N+](=O)[O-])cc2)SC1=S,+,–,–,68,–
CC1CCN(C(=S)c2ccc(O)cc2)CC1,–,–,–,–,37
Oc1ccc(C(=S)N2CCCC2)cc1,–,–,–,–,–
O=C(Oc1cccc(C(=S)N2CCCCC2)c1)c1ccccc1,–,–,–,–,–
Oc1cccc(C(=S)N2CCCCC2)c1,–,–,·,–,38
Oc1ccc(C(=S)N2CCCCCC2)cc1,–,–,–,–,37
COc1cccc(NC(=O)CSc2nnc(CNC(=O)c3ccccc3F)o2)c1,–,–,–,–,–
CCSc1nnc(NC(=O)CSc2nnc(CNC(=O)c3ccccc3F)o2)s1,–,54,–,–,–
CCN(CC)CCCNc1ncnc2ccccc12,+,–,–,–,–
CO[C@@H]1CN(C)C(=O)c2cc(NC(=O)Nc3ccccc3Cl)ccc2OC[C@H](C)NC[C@@H]1C,·,·,–,·,·
CCOC(=O)c1c(-c2ccc(C)o2)csc1NC(=S)NC(=O)c1ccc(F)cc1,–,–,·,–,46
CCOC(=O)c1c(-c2ccc(C)o2)csc1NC(=O)CN1CCCCC1,–,·,–,–,–
COCCN=c1scc(-c2ccc3c(c2)NC(=O)CO3)n1/N=C(\C)c1ccc(O)cc1,+,–,–,–,–
COc1cc(/C=N/n2c(-c3ccc4c(c3)NC(=O)CO4)csc2=Nc2cccc(C)c2)ccc1O,–,–,–,–,–
C[C@H](CO)N1C[C@H](C)[C@@H](CN(C)C(=O)CCCN(C)C)OCCCC[C@H](C)Oc2ccc(NC(=O)c3ccncc3)cc2C1=O,·,·,–,·,·
O=C(CN1CCC(n2nnc3cc(C(F)(F)F)ccc32)CC1)N1CCc2ccccc21,–,82,–,–,–
O=C(CN1CCC(n2nnc3cc(F)ccc32)CC1)N1CCCc2ccccc21,–,–,·,–,–
SMILES,PABP FP inh,Pemphigus Ab inh,UUG fidelity,eIF4H inh,PABP1 MLLE inh
O=C(C[C@H]1CC[C@@H]2NC[C@@H](O)COC[C@H]2O1)Nc1nccs1,·,·,–,·,·
N#Cc1c(NC(=O)c2ccco2)sc2c1CCC2,+,–,–,74,–
N#Cc1c(NC(=O)c2ccncc2)sc2c1CCC2,+,–,·,51,–
NC(=O)c1c(NC(=O)c2ccncc2)sc2c1CCCC2,–,–,·,–,–
N#Cc1c(NC(=O)C2CC(c3ccccc3O)=NO2)sc2c1CCC2 (configuration not stated),–,–,–,–,40
CC1CCN(CC(=O)Nc2sc3c(c2C#N)CCC3)CC1,–,–,–,50,–
C[C@H]1CCCCO[C@H](CN(C)C(=O)Nc2ccc(C(F)(F)F)cc2)[C@@H](C)CN([C@@H](C)CO)C(=O)c2cc(NC(=O)Nc3ccccc3)ccc2O1,·,·,–,·,·
S=C(Nc1ccc2nc(-c3ccccn3)c(-c3ccccn3)nc2c1)N1CCOCC1,–,–,·,–,46
COc1ccccc1N1C(=N)S/C(=C\c2ccc(-c3ccccc3C(=O)O)o2)C1=O,–,–,·,59,–
N=C1S/C(=C\c2ccc(-c3ccccc3C(=O)O)o2)C(=O)N1c1ccc2c(c1)OCO2,+,–,·,87,–
C[C@@H]1CN([C@@H](C)CO)C(=O)c2cc(C#CCN(C)C)cnc2O[C@H]1CN(C)C(=O)c1ccc(F)cc1,·,·,–,·,·
C[C@@H]1CN([C@H](C)CO)C(=O)c2cc(NC(=O)Nc3ccccc3)ccc2O[C@@H](C)CCCCO[C@H]1CN(C)Cc1ccccc1,·,·,–,·,·
